In general, Ki refers to the dissociation constant of the complex between target and ligand, obtained from inhibition or displacement. Broadly, the IC50 is the point on the concentration scale where inhibition reaches its midpoint. A higher IC50 goes with lower potency.

By UniProt entry, the sequences of proteins in these tests, tags left out.
UniProt Q63380, whole entry: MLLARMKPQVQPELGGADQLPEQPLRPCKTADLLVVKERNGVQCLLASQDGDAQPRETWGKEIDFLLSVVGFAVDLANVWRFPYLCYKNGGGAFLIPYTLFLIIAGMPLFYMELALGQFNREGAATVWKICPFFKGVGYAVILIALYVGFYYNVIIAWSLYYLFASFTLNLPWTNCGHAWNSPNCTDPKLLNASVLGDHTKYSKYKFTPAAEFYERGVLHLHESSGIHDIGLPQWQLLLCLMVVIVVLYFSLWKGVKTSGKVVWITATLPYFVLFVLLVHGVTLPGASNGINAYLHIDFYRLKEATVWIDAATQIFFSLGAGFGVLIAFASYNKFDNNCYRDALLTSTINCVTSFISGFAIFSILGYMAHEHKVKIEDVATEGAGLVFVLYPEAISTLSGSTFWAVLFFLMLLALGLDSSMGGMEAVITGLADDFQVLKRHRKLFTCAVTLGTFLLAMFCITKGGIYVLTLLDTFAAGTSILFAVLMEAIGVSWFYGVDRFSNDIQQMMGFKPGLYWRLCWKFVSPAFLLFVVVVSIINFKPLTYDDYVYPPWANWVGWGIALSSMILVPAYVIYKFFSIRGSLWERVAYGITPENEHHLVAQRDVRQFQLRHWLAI
UniProt P23977, whole entry: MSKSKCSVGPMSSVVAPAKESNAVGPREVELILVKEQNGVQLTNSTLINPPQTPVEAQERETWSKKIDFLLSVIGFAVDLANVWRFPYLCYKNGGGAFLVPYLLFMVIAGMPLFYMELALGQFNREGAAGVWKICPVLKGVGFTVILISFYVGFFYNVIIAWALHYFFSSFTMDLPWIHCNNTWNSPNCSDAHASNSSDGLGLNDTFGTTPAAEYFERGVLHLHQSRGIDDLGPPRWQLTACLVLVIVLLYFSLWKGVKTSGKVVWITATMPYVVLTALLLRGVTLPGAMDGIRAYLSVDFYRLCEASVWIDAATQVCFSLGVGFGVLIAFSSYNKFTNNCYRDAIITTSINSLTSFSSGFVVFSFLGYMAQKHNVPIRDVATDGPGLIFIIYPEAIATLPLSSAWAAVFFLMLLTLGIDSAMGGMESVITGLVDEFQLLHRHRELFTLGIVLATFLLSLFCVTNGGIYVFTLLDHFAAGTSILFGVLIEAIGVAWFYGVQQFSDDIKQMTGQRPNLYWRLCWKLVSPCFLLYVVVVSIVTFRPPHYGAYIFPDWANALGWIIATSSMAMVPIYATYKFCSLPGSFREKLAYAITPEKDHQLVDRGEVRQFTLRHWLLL

Each structure is given as a SMILES string.

We go through 3 compounds from ChEMBL document CHEMBL1139307, “1-Naphthyl and 4-indolyl arylalkylamines as selective monoamine reuptake inhibitors” (Bioorg Med Chem Lett, 2009).

For experiment [1], the target named is Transporter (Rattus norvegicus, UniProt Q63380). As to the kind of experiment: Displacement of [3H]nisoxetine from Sprague-dawley rat NET by liquid scintillation spectrophotometry. Background: Displacement assays read how much labelled ligand stays bound in the presence of the test substance.
Experiment [2] has as its target Sodium-dependent dopamine transporter (Rattus norvegicus, UniProt P23977). Briefly: Displacement of [125I]RTI55 from DAT in Sprague-dawley rat striatum by liquid scintillation spectrophotometry.

The compound `CNCCC(Oc1ccccc1OC)c1ccccc1` (racemic) [NISOXETINE] displayed a Ki in experiment [1] of 6 nM. This lies in the single-digit nanomolar range.

In the case of `CNCC[C@@H](Oc1cccc2ccccc12)c1cccs1` [(R)-DULOXETINE], in experiment [2], the IC50 turned out to be 660 nM.

Turning to `CNCC[C@H](Oc1cccc2ccccc12)c1cccs1` [DULOXETINE], the IC50 in experiment [2] is 370 nM.
